Compound activity (PubChem BioAssay)
Cneo AK release = Cryptococcus neoformans lysis via adenylate kinase release; AID 651654; lysis activity, % at 15 µM; hit rate 0.2% among 360,000; C. neoformans lysis, adenylate kinase release luminescence, 4 h; normalised: neutral wells 0, clomiphene wells 100;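 active means mean lysis activity across replicates of at least 80%, whatever share of replicates individually reach that level; inactive means mean lysis activity below 80%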
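Material: C. neoformans cells; Schedule: 4 h static compound exposure, 37 °C, read 1 h post-reagent; Measured by: adenylate kinase release luminescence; Read-out: signal increase indicating cell lysis; Controls: Clomiphene as positive lysis control.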
PGC1a acetyl inh = modulators of PGC1a acetylation; U2OS PGC1a acetylation, AlphaScreen anti-acetyl-lysine; with virally co-expressed GCN5 acetyltransferase; inhibition, % at 15.6 µM; hit rate 0.17% among 350,000; AID 651687;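 active means every replicate shows inhibition of at least 40%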;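 further: 0% = neutral control wells and 100% = positive control wells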
Yeast UUG start = modulators of yeast start codon fidelity, primary screen, whole organism, S. cerevisiae, single point, plate reader. S. cerevisiae UUG-firefly luciferase reporter, luminescence/redox ratio. activity score, % at 18.7 µM. actives 0.13% (n = 350,000);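 active = replicate mean at a twofold rise or more, about +100% in these data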;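 note: firefly luciferase made from a UUG start codon reports start codon fidelity; reporter light over untreated wells divided by growth signal over untreated wells; some hits fall short of that in this replicate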
Env fusion inh = inhibitors of HIV Env-mediated cell fusion; HeLa-JRFL Env/CEM21 cell fusion, luciferase; inhibition, % at 12.3 µM; hit rate 1.1% among 360,000;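 active means mean replicate inhibition score of at least 50 and every replicate individually at or above 50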;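 further: 0% = plate neutral controls and 100% = maraviroc near 300 nM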
miR122 inh = inhibitors of miR-122 in Huh7 cells | activation (reporter increase), % at 12.5 µM | Huh7 miR-122 Renilla luciferase sensor, 48 h; neutral wells = 0, positive control = 100 | hit rate 0.3% among 340,000;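 active means mean replicate activation score at least 90 and every replicate individually at or above 90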;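 further: higher luciferase means less miR-122 activity so hits act as miR-122 inhibitors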
FN deposit inh = fibronectin deposition inhibition. AH1F fibroblasts, Alexa488-fibronectin deposition fluorescence, overnight. inhibition, % at 12.6 µM. hit rate 0.086% among 350,000. AID 743247;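 active means mean inhibition across replicates of 30% or more, regardless of how many single replicates reach that level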;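 further: positive control wells lacked labelled fibronectin entirely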
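Assay system: AH1F fibroblasts / Quantity: 10000 cells per well / Medium: DMEM plus 2% serum, read in PBS / Reagent: labelled fibronectin 24 nM / Dosing: single dose, pinned / Times: 1 h cell attachment, overnight exposure to compound and label / Signal: fluorescence, ex 485 nm, em 525 nm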
Active calls of the source: *; · = no result given; [ ] = dose if it differs, or a comment. Sampled rows, rich in hits. Any-hit rate of the full collection: about 1.5%.

Each structure is followed by: miR122 inh	FN deposit inh	Cneo AK release	PGC1a acetyl inh	Env fusion inh	Yeast UUG start
- Cc1c(NC(=O)c2cc3c(s2)-c2ccccc2OC3)cccc1[N+](=O)[O-]
    11	14	1	·	87*	-8
- Cc1cc(C)c(C#N)c(SCC(=O)Nc2cccc(S(=O)(=O)N3CCCC3)c2)n1
    ·	·	0	·	-19	-14
- Brc1ccc(/C=N/Nc2nc3ccccc3o2)cc1
    ·	-2	67	-3	-84	-6
- Oc1ccccc1/C=N/Nc1nc2ccccc2o1
    -48	7	4	41*	-86	-33
- CCC1CCCCN1CCCNC(=O)COc1cc(=O)n(C)c2ccccc12 (stereo not given)
    3	-2	0	-5	-102	-10
- Cc1cccc(C)c1NC(=O)C1(NC(=O)Cn2cccc([N+](=O)[O-])c2=O)CCCCC1
    ·	-4	·	·	1	·
- C#CCN(C[C@@H]1[C@@H](OC(=O)NCc2ccccc2F)[C@@H](OC(=O)NCc2ccccc2F)Cn2c(=O)ccc(=O)n21)S(=O)(=O)c1ccc(C)cc1
    -32	2	-2	60*	7	-21
- C#CCN(C[C@@H]1[C@@H](OC(=O)NCc2ccccc2F)[C@@H](OC(=O)NCc2ccccc2F)Cn2c(=O)n(CCCCCC)c(=O)n21)S(=O)(=O)c1ccc(C)cc1
    -12	-11	-1	5	-1	-15
- C#CCN(C[C@H]1[C@H](OC(=O)Nc2cccs2)[C@H](OC(=O)Nc2cccs2)CN(C(=O)OC(C)C)N1C(=O)OC(C)C)S(=O)(=O)c1ccc(C)cc1
    ·	·	·	·	117*	·
- CNC[C@H]1Oc2c(NS(=O)(=O)c3ccc(OC)cc3)cccc2C(=O)N([C@@H](C)CO)C[C@@H]1C
    -3[16.7 µM]	·	3	-2	3[16.7 µM]	·
- O=S(=O)(/C(=C/c1ccc(C(F)(F)F)cc1)c1nc2ccccc2[nH]1)c1ccccc1
    ·	65*	·	·	-127	·
- Cc1ccc(S(=O)(=O)C2CCCCC2=O)cc1 (stereo not given)
    ·	1	·	·	10	·
- N#CC1=C(N)Oc2c(ccc3cccnc23)C1c1ccccc1 (stereo not given)
    -64	36*	-1	11	13	-29
- Cc1ccc2[nH]c(=O)c(C3C(C#N)=C(N)Oc4c3ccc3cccnc43)cc2c1 (stereo not given)
    3	3	-1	·	47	-29
- Cn1nccc1NC(=O)NC(=O)c1c(Cl)cccc1Cl
    ·	13	·	-1	-6	·
- Cc1ccc2c(C)c(C(=O)N3CCN(Cc4ccccn4)CC3)oc2c1C
    ·	·	82*	·	30	-25
- Cc1cc2oc(C(=O)N3CCN(CCc4ccccn4)CC3)c(C)c2cc1C
    -7	-2	2	·	-6	-9
- CCN1C(N(C)CCc2cccs2)=N[C@@H](c2ccccc2)C(C(=O)OC)=C1C
    9	·	2	6	-60	6
- COC(=O)C1CCCCN1C(=O)c1cc(COc2cccc3cnccc23)on1 (stereo not given)
    -4	-1	1	·	64*	-13
- COC(=O)C1CCCCN1C(=O)c1cc(COc2cccc3cccnc23)on1 (stereo not given)
    -3	5	-1	7	-24	-13
- O=C(CCC(=O)c1cccs1)NCc1cccnc1
    -9	38*	-2	-1	-19	-10
- O=C(CCC(=O)c1cccs1)NCc1ccncc1
    -5	4	-3	6	1	-14
- Cc1c(Cl)cccc1NC(=O)N1CCCN(c2nc(-c3ccccc3)ns2)CC1
    -11	10	1	-2	55*	-2
- Cc1ccc(-c2csc(NC(=O)Cc3ccc(F)cc3)n2)o1
    6	-2	-2	5	13	-28
- O=C(NCCc1ccccc1)N1c2ccccc2Sc2ccccc21
    -8	-13	0	1	60*	8
- CC(C)CNC(=O)N1c2ccccc2Sc2ccccc21
    ·	6	·	·	11	·
- Cc1ccc(C)c(NS(=O)(=O)c2cc(C(=O)NCc3ccco3)ccc2C)c1
    200*	-5	-8	3	-125	-10
- COc1ccccc1NS(=O)(=O)c1cc(C(=O)NCc2ccco2)ccc1C
    110*	·	2	·	-37	24
- Cc1ccc(C(=O)NCc2ccco2)cc1S(=O)(=O)Nc1cccc(C)c1C
    244*	3	3	-3	-27	-4

Laid out differently: results already given
canonical_smiles: Cc1cccc(C)c1NC(=O)C1(NC(=O)Cn2cccc([N+](=O)[O-])c2=O)CCCCC1
  miR122 inh: ·; FN deposit inh: -4; Cneo AK release: ·; PGC1a acetyl inh: ·; Env fusion inh: 1; Yeast UUG start: ·
canonical_smiles: C#CCN(C[C@@H]1[C@@H](OC(=O)NCc2ccccc2F)[C@@H](OC(=O)NCc2ccccc2F)Cn2c(=O)ccc(=O)n21)S(=O)(=O)c1ccc(C)cc1
  miR122 inh: -32; FN deposit inh: 2; Cneo AK release: -2; PGC1a acetyl inh: 60*; Env fusion inh: 7; Yeast UUG start: -21
